Laboratory results from ChEMBL document CHEMBL1671867, “Novel polymyxin derivatives carrying only three positive charges are effective antibacterial agents” (Antimicrob Agents Chemother, 2008).

Assays:
Format in all cases: functional
[1] = tested on: Acinetobacter baumannii; assay: Antibacterial activity against Acinetobacter baumannii ATCC 19606 by Etest method in presence of […] NAB739
[2] = tested on: Acinetobacter baumannii; assay: Antibacterial activity against Acinetobacter baumannii F264 by Etest method in presence of […] NAB739
[3] = tested on: Pseudomonas aeruginosa; assay: Antibacterial activity against Pseudomonas aeruginosa ATCC 27853by Etest method in presence of […] NAB739

CO[C@H]1/C=C/O[C@@]2(C)Oc3c(C)c(O)c4c(O)c(c(/C=N/N5CCN(C)CC5)c(O)c4c3C2=O)NC(=O)/C(C)=C\C=C\[C@H](C)[C@H](O)[C@@H](C)[C@@H](O)[C@@H](C)[C@H](OC(C)=O)[C@@H]1C [RIFAMPIN]
MIC [1]: 0.25 µg/mL
MIC [2]: 0.5 µg/mL
MIC [3]: 32 µg/mL
